The record followed here is patent publication US20040038201A1, “Diagnostic and therapeutic applications for biomarkers of infection” (Whitehead Institute for Biomedical Research, priority 2002, published 2004).

Assay [1] deals with human macrophages. The experiment in a line: Differential (Gram-negative/TLR4-specific) macrophage gene expression after bacterial components or cytokines, HuFL GeneChips. The class given is cell-based. The conditions noted are these: IFNs at 1000 units/mL.
Assay [2] deals with human macrophages. Nature of the assay: I-TAC ELISA of macrophage supernatants. The class given is cell-based. The conditions noted are these: 100 units/mL IFN. Background: In an ELISA, binding on a coated surface is turned into a signal by an enzyme label.

B1: IFN-β: IFN-β from Bioscience International (protein, UniProt P01574 22-187, looked up)
Interferon beta: MSYNLLGFLQRSSNFQCQKLLWQLNGRLEYCLKDRMNFDIPEEIKQLQQFQKEDAALTIYEMLQNIFAIFRQDSSSTGWNETIVENLLANVYHQINHLKTVLEEKLEKEDFTRGKLMSSLHLKRYYGRILHYLKAKEYSHCAWTIVRVEILRNFYFINRLTGYLRN
As to B1, in the assay on human macrophages [1], the “induction of the TLR4-induced core cluster of genes by cytokines” value was “sufficient to induce the expression of the TLR4-induced core cluster of genes”. Besides, the “I-TAC production by macrophages in response to IFNs” value in the assay on human macrophages [2] is reported as “sufficient to induce I-TAC production”.
